From patent US8889153B2, “Combination of immunomodulator and anti-pathogenic agent” (priority 2008, dated 2014) come the findings set out here.

Molecules are shown by their SMILES. Marks after values point to notes of the source that are not given here. A value given as a limit tells only on which side of the number the result lay.

The test system of this experiment is Punta Toro virus - Adames strain. Type of experiment: in vivo, Punta Toro virus (host: C57BL/6 mice).

`NC(=O)c1ncn([C@@H]2O[C@H](CO)[C@@H](O)[C@H]2O)n1` [Ribavirin, 1-(β-D-Ribofuranosyl)-1H-1,2,4-triazol-3-carboxamide, reference compound]: the Number of survivors (Ribavirin 50 mg/kg/day, 2 × day × 5 days i.p., start 4 h prior to infection, 21 days) is given as 10/10***. Moreover, for the setting “mouse, in vivo”, the “Hepatic parameters (ALT) ALT ± Standard Deviation” value was 22 ± 23 UI/liter; the “Parameters of Hepatic Damage (Score) Score ± Standard Deviation” value was 1.4 ± 0.5; the “Percentage of animals with detectable viruses, Liver” value is <2.8 (0) %; the “Percentage of animals with detectable viruses, Serum” value is given as <2.8* (0) %. Besides, under “mouse, in vivo”, the “Viral load ± Standard deviation, Liver” value is listed as <2.8 (0) and the “Viral load ± Standard deviation, Serum” value is <2.8* (0).
